{"sequences": {"note": "The chains behind the UniProt entries cited, without tags or fusion partners.", "UniProt P14902, whole entry": "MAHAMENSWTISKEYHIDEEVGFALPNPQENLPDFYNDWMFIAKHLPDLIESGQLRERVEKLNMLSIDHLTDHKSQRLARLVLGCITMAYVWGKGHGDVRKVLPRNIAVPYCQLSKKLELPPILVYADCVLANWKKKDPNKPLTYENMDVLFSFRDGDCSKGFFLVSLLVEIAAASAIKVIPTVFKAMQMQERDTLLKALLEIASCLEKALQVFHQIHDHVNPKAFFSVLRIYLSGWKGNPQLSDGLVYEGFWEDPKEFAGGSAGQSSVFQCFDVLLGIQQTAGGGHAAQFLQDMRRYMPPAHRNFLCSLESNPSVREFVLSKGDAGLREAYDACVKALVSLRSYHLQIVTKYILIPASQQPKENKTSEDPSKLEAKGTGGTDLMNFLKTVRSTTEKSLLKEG", "UniProt P48775, whole entry": "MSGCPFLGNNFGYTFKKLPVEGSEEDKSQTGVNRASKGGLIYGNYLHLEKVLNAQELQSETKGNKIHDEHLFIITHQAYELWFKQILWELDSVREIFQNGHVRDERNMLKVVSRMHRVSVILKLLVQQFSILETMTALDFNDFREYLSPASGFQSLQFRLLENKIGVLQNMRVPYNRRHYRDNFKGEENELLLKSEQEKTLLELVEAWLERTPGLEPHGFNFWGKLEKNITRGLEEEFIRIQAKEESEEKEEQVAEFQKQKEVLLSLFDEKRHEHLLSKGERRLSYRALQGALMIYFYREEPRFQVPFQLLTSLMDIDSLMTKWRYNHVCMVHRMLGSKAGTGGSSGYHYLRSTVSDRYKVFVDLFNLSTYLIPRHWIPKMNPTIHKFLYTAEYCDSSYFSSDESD"}, "source": "paper PMC6895048", "about": "“4,5-Disubstituted 1,2,3-triazoles: Effective Inhibition of Indoleamine 2,3-Dioxygenase 1 Enzyme Regulates T cell Activity and Mitigates Tumor Growth” (Scientific Reports, 2019)", "key": {"IDO1 [1]": {"target": "T1, IDO1 (Homo sapiens, UniProt P14902)", "assay": "Kynurenine assay by HPLC analysis, IDO1", "conditions": "for % Of inhibition for IDO1 enzyme: HPLC"}, "[2]": {"target": "purified human TDO enzyme (Homo sapiens, UniProt P48775)", "assay": "TDO inhibition assay by the spectrometric method", "conditions": "spectrophotometric"}, "IDO1 [3]": {"target": "T1, IDO1", "assay": "Cellular IDO1 activity assay in IFN-γ induced MDA-MB-231 cells", "assay_type": "cell-based", "conditions": "read-out: MDA-MB-231 cells EC50; IDO1 expression induced by human IFN-γ (50 ng/mL); mean of three"}, "[4]": {"target": "purified human IDO1 enzyme (Homo sapiens, UniProt P14902)", "assay": "IDO1 inhibition assay by the spectrometric method (pDMAB)", "assay_type": "biochemical", "conditions": "read-out: hIDO1 IC50, spectrophotometric, mean of three independent assays"}, "TDO enzyme": {"target": "TDO enzyme (Homo sapiens, UniProt P48775)", "assay": "HPLC based TDO inhibition assay"}}}
{"smiles": "Nc1ccccc1NC(=O)c1n[nH]nc1-c1ccc(F)c(F)c1", "values": [{"measurement": "IC50", "setting": "IDO1 [1]; HPLC based IDO1 inhibition assay", "value": 172, "unit": "nM"}, {"measurement": "% Of inhibition for IDO1 enzyme", "setting": "IDO1 [1]; 32 nM", "value": 20, "unit": "%"}, {"measurement": "% Of inhibition for IDO1 enzyme", "setting": "IDO1 [1]; 160 nM", "value": 48, "unit": "%"}, {"measurement": "% Of inhibition for IDO1 enzyme", "setting": "IDO1 [1]; 800 nM", "value": 79, "unit": "%"}, {"measurement": "% Of inhibition for IDO1 enzyme", "setting": "IDO1 [1]; 4 µM", "value": 84, "unit": "%"}, {"measurement": "% Of inhibition for IDO1 enzyme", "setting": "IDO1 [1]; 20 µM", "value": 86, "unit": "%"}, {"measurement": "% Of inhibition for IDO1 enzyme", "setting": "IDO1 [1]; 100 µM", "value": 88, "unit": "%"}, {"measurement": "% of Enzyme inhibition (TDO)", "setting": "[2]; 32 nM", "value": 4, "unit": "%"}, {"measurement": "% of Enzyme inhibition (TDO)", "setting": "[2]; 160 nM", "value": 6, "unit": "%"}, {"measurement": "% of Enzyme inhibition (TDO)", "setting": "[2]; 800 nM", "value": 7, "unit": "%"}, {"measurement": "% of Enzyme inhibition (TDO)", "setting": "[2]; 4 µM", "value": 26, "unit": "%"}, {"measurement": "% of Enzyme inhibition (TDO)", "setting": "[2]; 20 µM", "value": 31, "unit": "%"}, {"measurement": "% of Enzyme inhibition (TDO)", "setting": "[2]; 100 µM", "value": 36, "unit": "%"}, {"measurement": "EC50", "setting": "IDO1 [3]", "value": 182, "unit": "nM"}, {"measurement": "IC50", "setting": "[4]", "value": 271, "unit": "nM"}, {"measurement": "% Of inhibition for TDO enzyme", "setting": "TDO enzyme; 32 nM", "value": 9, "unit": "%"}, {"measurement": "% Of inhibition for TDO enzyme", "setting": "TDO enzyme; 160 nM", "value": 19, "unit": "%"}, {"measurement": "% Of inhibition for TDO enzyme", "setting": "TDO enzyme; 800 nM", "value": 33, "unit": "%"}, {"measurement": "% Of inhibition for TDO enzyme", "setting": "TDO enzyme; 4 µM", "value": 56, "unit": "%"}, {"measurement": "% Of inhibition for TDO enzyme", "setting": "TDO enzyme; 20 µM", "value": 64, "unit": "%"}, {"measurement": "% Of inhibition for TDO enzyme", "setting": "TDO enzyme; 100 µM", "value": 70, "unit": "%"}]}
{"smiles": "O=C(Nc1ccccc1)c1n[nH]nc1-c1ccc(Cl)c(Cl)c1", "values": [{"measurement": "IC50", "setting": "[4]", "value": 19400, "unit": "nM"}]}
{"smiles": "Nc1ccccc1NC(=O)c1n[nH]nc1-c1ccc(Cl)c(Cl)c1", "values": [{"measurement": "IC50", "setting": "[4]", "value": 2010, "unit": "nM"}]}
